# Results from PubChem BioAssay (Tox21).
# The list shows a part of the results, in another mix than the full data. Inconclusive results are not listed. Calls of active or inactive are those of the source. The call rests on the fitted dose curve.
# Assay: qHTS assay for small molecule agonists of the antioxidant response element (ARE) signaling pathway - cell viability counter screen (AID 743203); further: nearly all actives have a fitted effect of over 55% in size
# Conditions: ARE-bla HepG2 viability, CellTiter-Glo luminescence, 16 h; series mostly up to 73.3 µM; viability change, negative = cytotoxic: at the top concentration
# Source text: National Center for Advancing Translational Sciences [NCATS]
# NIH Chemical Genomics Center [NCGC]
# U.S. Environmental Protection Agency [EPA]
# National Institutes of Environmental Health Sciences [NIEHS]
# National Toxicology Program [NTP]
# U.S. Food and Drug Administration [FDA]
# Oxidative stress has been implicated in the pathogenesis of a variety of diseases ranging from cancer to neurodegeneration. The antioxidant response element (ARE) signaling pathway plays an important role in the amelioration of oxidative stress. The CellSensor ARE-bla HepG2 cell line (Invitrogen) can be used for analyzing the Nrf2/antioxidant response signaling pathway. Nrf2 (NF-E2-related factor 2) and Nrf1 are transcription factors that bind to AREs and activate these genes. The CellSensor ARE-bla Hep G2 cell line contains a beta-lactamase reporter gene under control of the Antioxidant Response Element (ARE) stably integrated into HepG2 cells. The activation of the report gene under culture conditions can be detected by fluorescence intensity. This cell line has been used to screen the Tox21 10K compound library to identify agonists that induce oxidative stress. The cytotoxicity of the Tox21 compound library against the ARE-bla cell line was tested in parallel by measuring the cell viability using CellTiter-Glo assay (Promega, Madison, WI) in the same wells.
# Tox21 Assay Protocol Summary:
# ARE-bla HepG2 cells were dispensed at 2,000 cells/5 ul/well in 1536-well white wall/solid bottom plates using a Multidrop Combi (ThermoFisher Scientific, Waltham, MA) dispenser. After the assay plates were incubated at 37C/5% CO2 for 5 hrs, 23 nL of compounds dissolved in DMSO, positive controls or DMSO only was transferred to the assay plate by a pintool work station (Kalypsys, San Diego, CA). The plates were incubated at 37C/5% CO2 for 16 hrs, followed by addition of 4 ul/well of CellTiter-Glo reagent into the assay plates using a Flying Reagent Dispenser (Aurora Discovery, San Diego, CA). After 30 min incubation at room temperature, the luminescence intensity in the assay plates was measured using a ViewLux (PerkinElmer, Shelton, CT) plate reader.
# On the % scale 0 is the no-effect control and ±100 the full control effect; potency means the concentration at half of the fitted maximal effect.
Structure (SMILES),"viability change, negative = cytotoxic",Potency
CN(C(=O)Cc1ccccc1)[C@H]1CC[C@@]2(CCCO2)C[C@@H]1N1CCCC1,inactive: -4.25%,–
O=[As]c1ccccc1 (stereo not given),–,active: 344 nM
CN(C(=O)Cc1ccc(Cl)c(Cl)c1)[C@H]1CC[C@@]2(CCCO2)C[C@@H]1N1CCCC1,inactive: -4%,–
O=[P+](Oc1ccccc1)Oc1ccccc1,inactive: 10.5%,–
CCOP(=S)(CC)Sc1ccccc1 (stereo not given),inactive: -13.3%,–
CN(C(=O)Cc1cccc2occc12)[C@H]1CC[C@@]2(CCCO2)C[C@@H]1N1CCCC1,inactive: 3.36%,–
O=[p+]1oc2ccccc2c2ccccc21 (stereo not given),inactive: 10.5%,–
COC(=O)Cl,inactive: 3.83%,–
COP(=S)(Cl)OC,inactive: 2.18% [at 94.8 µM],–
CCNC(C)Cc1ccc2c(c1)OCO2 (stereo not given),inactive: -4.59% [at 94.8 µM],–
CCCCC(CC)CO[P+](=O)OCC(CC)CCCC (stereo not given),inactive: 7.15%,–
CCCCO[P+](=O)OCCCC,–,inactive
Cc1cc([N+](=O)[O-])c(O)c([N+](=O)[O-])c1,inactive: -0.217% [at 94.8 µM],–
ClP(Cl)c1ccccc1,inactive: -0.0923%,–
CC(C)CCCCCCCOP(OCCCCCCCC(C)C)Oc1ccccc1,inactive: -1.64%,–
CCOC(=O)Cl,inactive: -13.2%,–
NC(=O)Nc1ccc([As](=O)(O)O)cc1,–,inactive
CN(N=O)C(=N)N[N+](=O)[O-],inactive: -2.66%,–
O=P(Cl)(Oc1ccccc1)Oc1ccccc1,inactive: 19.8%,–
O=[N+]([O-])c1ccc(S(=O)(=O)O)c([N+](=O)[O-])c1,inactive: 6.21% [at 94.8 µM],–
